Test results taken from US6838450B2, “Drug complex” (Daiichi Pharmaceutical Co., LTD, priority 1996, dated 2005).

Columns and labels:
[1] = system: mouse fibrosarcoma Meth A cells; experiment: Antitumor activity, Meth A tumor-bearing mice, single administration; assay type: in vivo
Method: Meth A tumor-bearing mice (6 mice per group) were prepared according to a similar manner to that of Example 11 and the antitumor activity was compared to that obtained by single administration of the drug complexes of Examples 8 and 9 once on day 7. As a result, the degree of the antitumor activity was as follows: (Polysaccharide derivative)-Gly-Gly-Phe-Gly-NH—A′>(Polysaccharide derivative)-Gly-Gly-Gly-Phe-NH—A′>the drug compound, per se.
(§1) Meth A tumor-bearing mice (6 mice per group) were prepared according to a similar manner to that of Example 11 and the antitumor activity of the drug complex of Example 15 was examined by single administration in a similar manner to that of Example 12.
as §1, with “11,” for “11”, “41” for “15”, “in the cases of” for “by”, “12, and its antitumor activity was compared to that of the drug compound, per se. […]” for “12.”
Meth A tumor-bearing mice (6 mice per group) were prepared according to a similar manner to that of Example 11, and antitumor activity of the drug complex of Example 44 was examined according to a similar method to that of Example 12 by single administration, and its antitumor activity was compared to that of the drug compound (Doxorubicin), per se.

[2] = Pharmacokinetics in Meth A tumor-bearing mice; assay type: in vivo, mouse; conditions: single administration, 10 mg/kg calculated as the drug compound; FIG. 24
Method: Meth A tumor-bearing mice were prepared according to a similar manner to that of Example 11, the drug complex of Example 15 was given as single administration in a similar manner to that of Example 12 (10 mg/kg: calculated as the drug compound), and the change of the drug complex concentration in various tissues was determined.

Substance | Numbers of died mice/mice used ([1]; Example 61, 5 mg/kg calculated based on the drug compound) | Numbers of died mice/mice used ([1]; Example 61, 10 mg/kg calculated based on the drug compound) | Numbers of died mice/mice used ([1]; Example 61, 20 mg/kg calculated based on the drug compound) | Numbers of died mice/mice used ([1]; Example 61, 40 mg/kg calculated based on the drug compound) | tumor selectivity against liver and small intestine [2]
carboxymethyldextran polyalcohol-Gly-Gly-Phe-Gly-DXR [Example 44] | 0/6 | 0/6 | 0/6 | 0/6 | –
carboxymethyldextran polyalcohol-Gly-Gly-Phe-Gly-NH—A′ (A—NH2=DX-8951) [Example 15] | – | – | – | – | high
